Experimental data published in US20260382690A1, “Dual-Domain Peptide for Depleting HMGB1 from the Circulation via Liver HSPG System” (published 2026).

Test system: GSNOR
Experiment: Lung GSNOR dehydrogenase activity in homogenates of treated SS mice (NADH consumption)
Details: 3 weeks, hE-HMGB1-BP or KYC; for lung GSNOR dehydrogenase activity versus AA mice: ns; for decrease of lung GSNOR dehydrogenase activity: p<0.05
From the text: FIGS. 6A-6D. Effects of SCA and hE-HMGB1-BP and KYC Treatments on CD31 and GSNOR Lung Expression. (FIG. 6A) Lung Sections from AA and SS mice immunostained for CD31 and GSNOR. Representative merged lung sections (three each) from AA and SS mice treated with PBS, hE-HMGB1-BP, or KYC test groups. Sections were immunostained for CD31 (green), GSNOR (red), and nuclei (blue—DAPI). (FIG. 6B) Relative fluorescence intensities for CD31 were randomly captured from five to four regions. CD31 fluorescence intensities were determined using NIH Image J, tested for outliers, and averaged. Average intensities for CD31 in each lung were plotted as scatter plots in bars (mean±SD) for AA and SS mice treated with PBS, hE-HMGB1-BP, and KYC. ANOVA was used to analyze, with an appropriate post hoc test, differences between means (AA, n=4; SS+PBS, n=4; SS+hE-HMGB1-BP, n=4; and, SS+KYC, n=3, ***=p<0.001, **=p<0.05). (FIG. 6C) Relative fluorescence intensities for GSNOR were randomly captured from five to four regions. GSNOR fluorescence intensities were determined using NIH Image J, tested for outliers, and averaged. Average intensities for GSNOR in each lung were plotted as scatter plots in bars (mean±SD) for AA, SS mice treated with PBS, hE-HMGB1-BP, and KYC, showing the mean±SD for each test group. ANOVA was used to analyze differences between means with an appropriate post hoc test (AA, n=4; SS+PBS, n=4; SS+hE-HMGB1-BP, n=4; and SS+KYC, n=3, **=p<0.05, *=p<0.05). (FIG. 6D) GSNOR dehydrogenase activity in lung lysates was determined from the decrease in NADH absorbance at 340 nm after the addition of GSNO per Liu et al. The decrease in absorbance at 340 nm was calculated by subtracting the values of the negative controls from the absorbance in duplicate samples. The resulting GSNOR activity was expressed as a ratio of the absorbance decrease in individual samples to the average absorbance decrease in AA samples and plotted as scatter plots in bars (mean±SD). ANOVA was used to analyze differences between means with an appropriate post hoc test (AA, SS+PBS, SS+hE-HMGB1-BP, and SS+KYC: n=9 each test group, *=p<0.05).
GSNOR dehydrogenase activity was determined from NADH consumption per Liu et al. Briefly, frozen mouse lungs were lysed in Tris buffer (20 mM, pH 8.0) containing EDTA (0.5 mM) and protease inhibitors. Lysates were centrifuged (4 °C, 16,000 g, 10 min), and supernatant protein was determined with Pierce BCA protein assay kit (ThermoFisher 23225). Lysate aliquots (0.5 mg/ml) and 200 μM NADH (Sigma N8129) were added in duplicate to a 96-well UV transparent plate (ThermoFisher 8404). Lung GSNOR Enzyme activity was started by adding GSNO (Sigma 487920) to the assay mix (final concentration=400 μM in 200 μL). Tris buffer and 10 μg/mL recombinant GSNOR (ProSpec ENZ-595) were used as negative and positive controls, respectively. The plate was incubated at room temperature for 30 min, and absorbance at 340 nm was measured using a ThermoFisher UV/Vis microplate reader. The decrease in absorbance at 340 nm was calculated by subtracting the values of the negative controls from those of the samples. The resulting GSNOR activity was expressed as a ratio of the absorbance decrease in individual samples to the average absorbance decrease in AA samples.

SMILES | lung GSNOR levels and activity (in words) | lung GSNOR dehydrogenase activity versus AA mice | decrease of lung GSNOR dehydrogenase activity
CC[C@H](C)[C@H](NC(=O)CNC(=O)[C@H](CCCCN)NC(=O)[C@@H](NC(=O)[C@H](CC(=O)O)NC(=O)[C@H](Cc1ccccc1)NC(=O)[C@H](CC(N)=O)NC(=O)[C@H](CC(N)=O)NC(=O)[C@H](C)NC(=O)[C@H](CO)NC(=O)[C@H](Cc1c[nH]cn1)NC(=O)[C@H](C)NC(=O)CNC(=O)CNC(=O)[C@H](CCCNC(=N)N)NC(=O)[C@H](CC(C)C)NC(=O)[C@H](CC(C)C)NC(=O)[C@H](CCCNC(=N)N)NC(=O)[C@H](CCCCN)NC(=O)[C@H](CCCNC(=N)N)NC(=O)[C@H](CC(C)C)NC(=O)[C@H](CCCCN)NC(=O)[C@H](CCCNC(=N)N)NC(=O)[C@H](CC(C)C)NC(C)=O)C(C)C)C(N)=O | reducing GSNOR levels and activity | essentially the same as the GSNOR dehydrogenase activity in lung homogenates from AA mice | approximately 18%
CC(=O)N[C@@H](CCCCN)C(=O)N[C@@H](Cc1ccc(O)cc1)C(=O)N[C@@H](CS)C(N)=O | – | essentially the same as the GSNOR dehydrogenase activity in lung homogenates from AA mice | approximately 18%
